Data taken from US10414728B2 (priority 2014, dated 2019).
Read-outs that look alike come from different tables or passages of the source.

Chains of the proteins cited; added tags and fusions are not shown.
UniProt Q99250, whole entry: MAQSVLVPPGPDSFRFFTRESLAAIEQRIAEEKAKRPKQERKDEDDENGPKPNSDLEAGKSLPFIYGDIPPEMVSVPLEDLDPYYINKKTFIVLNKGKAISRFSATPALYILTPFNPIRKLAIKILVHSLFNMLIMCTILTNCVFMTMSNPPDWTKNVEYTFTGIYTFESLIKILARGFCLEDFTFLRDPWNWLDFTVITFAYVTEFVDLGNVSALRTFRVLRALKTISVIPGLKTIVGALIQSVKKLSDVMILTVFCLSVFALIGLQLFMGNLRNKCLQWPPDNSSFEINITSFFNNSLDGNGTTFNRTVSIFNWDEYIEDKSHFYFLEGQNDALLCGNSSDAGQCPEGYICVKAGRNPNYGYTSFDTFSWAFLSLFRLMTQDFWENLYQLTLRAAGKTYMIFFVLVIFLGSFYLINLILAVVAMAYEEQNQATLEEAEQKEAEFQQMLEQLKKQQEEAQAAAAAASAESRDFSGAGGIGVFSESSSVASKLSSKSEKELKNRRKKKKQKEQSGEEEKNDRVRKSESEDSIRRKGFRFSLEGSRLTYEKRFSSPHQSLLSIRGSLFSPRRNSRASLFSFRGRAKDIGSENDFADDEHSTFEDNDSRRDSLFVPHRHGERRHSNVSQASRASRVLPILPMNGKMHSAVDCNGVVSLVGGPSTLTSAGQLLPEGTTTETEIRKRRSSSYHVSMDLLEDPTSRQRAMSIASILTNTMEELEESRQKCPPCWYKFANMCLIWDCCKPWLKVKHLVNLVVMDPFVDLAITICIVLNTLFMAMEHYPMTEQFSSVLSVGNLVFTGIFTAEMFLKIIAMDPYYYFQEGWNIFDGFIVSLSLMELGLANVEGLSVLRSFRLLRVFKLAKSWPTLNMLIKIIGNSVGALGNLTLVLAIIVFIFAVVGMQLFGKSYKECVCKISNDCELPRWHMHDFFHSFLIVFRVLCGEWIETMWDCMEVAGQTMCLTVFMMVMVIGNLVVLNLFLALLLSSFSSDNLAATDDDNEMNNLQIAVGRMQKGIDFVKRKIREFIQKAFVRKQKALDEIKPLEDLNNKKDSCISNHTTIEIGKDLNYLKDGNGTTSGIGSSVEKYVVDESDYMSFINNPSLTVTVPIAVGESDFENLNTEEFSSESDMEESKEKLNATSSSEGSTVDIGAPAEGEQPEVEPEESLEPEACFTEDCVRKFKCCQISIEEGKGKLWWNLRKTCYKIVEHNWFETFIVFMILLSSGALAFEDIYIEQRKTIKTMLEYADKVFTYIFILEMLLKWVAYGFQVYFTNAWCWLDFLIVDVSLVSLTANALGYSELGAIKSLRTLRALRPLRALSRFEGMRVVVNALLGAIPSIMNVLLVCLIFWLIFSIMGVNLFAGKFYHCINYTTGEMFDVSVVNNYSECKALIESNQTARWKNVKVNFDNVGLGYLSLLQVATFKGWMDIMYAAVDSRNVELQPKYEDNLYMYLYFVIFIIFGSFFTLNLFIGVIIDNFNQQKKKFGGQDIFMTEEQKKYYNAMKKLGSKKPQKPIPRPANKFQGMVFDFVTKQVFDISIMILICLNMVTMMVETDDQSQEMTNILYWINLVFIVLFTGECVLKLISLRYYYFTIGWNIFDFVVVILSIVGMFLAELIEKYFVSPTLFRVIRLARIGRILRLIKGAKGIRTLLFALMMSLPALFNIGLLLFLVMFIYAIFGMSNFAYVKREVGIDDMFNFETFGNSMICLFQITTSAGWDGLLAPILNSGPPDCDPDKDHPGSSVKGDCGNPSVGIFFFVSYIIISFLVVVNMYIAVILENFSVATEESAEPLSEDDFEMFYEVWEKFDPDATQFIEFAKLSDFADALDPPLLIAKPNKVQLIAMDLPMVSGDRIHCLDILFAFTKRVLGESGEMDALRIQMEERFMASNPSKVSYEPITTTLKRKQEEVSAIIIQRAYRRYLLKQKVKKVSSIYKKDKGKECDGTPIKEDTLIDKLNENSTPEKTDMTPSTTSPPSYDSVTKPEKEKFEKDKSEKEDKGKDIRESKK

Target: T1, human NaV 1.2 (Homo sapiens, UniProt Q99250)
T1 construct: expressed in transfected cells; host or cells: CHO
Experiment: Electrophysiology, IonWorks Barracuda, NaV channel block in CHO cells
Type: cell-based
Conditions: Nav1.2, CHO cells, 5 min exposure, ambient temperature
Procedure: Effects on Human NaV 1.1, NaV 1.2, NaV1.3, NaV 1.4, NaV 1.5, NaV 1.6, NaV 1.7 and NaV 1.8/β3 Sodium Channels Expressed in Mammalian Cells
CHO cells were stably transfected with human ion channel cDNAs. Stable transfectants were selected by expression with the antibiotic-resistance gene(s) incorporated into the expression plasmid(s). Selection pressure was maintained by including selection antibiotics in the culture medium. CHO cells were cultured in Ham's F-12 supplemented with 10% fetal bovine serum, 100 U/mL penicillin G sodium, 100 μg/mL streptomycin sulfate and appropriate selection antibiotics. Before testing, cells in culture dishes were washed twice with Hank's Balanced Salt Solution (HB-PS) and treated with Accutase for approximately 20 minutes. Immediately before use in IonWorks Barracuda™, the cells were washed in HB-PS to remove the Accutase and re-suspended in HB-PS. All experiments were performed at ambient temperature. […] Duration of exposure to each test article concentration was five (5) minutes. Inhibition of NaV channels was measured using a stimulus voltage pattern. The pulse pattern was repeated before (baseline) and for five (5) minutes after compound addition. […]

IC50 (read-out: IC50 TP1 (tonic)): 496 µM | IC50 (read-out: IC50 TP2 (inactivated state)): 411 µM
SMILES: CCN(CC)CC(=O)Nc1c(C)cccc1C [Lidocaine, reference compound]
